Target: T1, PDE4A (Homo sapiens, UniProt P27815)
T1 construct: purchased
Assay: Inhibition of PDE activity (assay kit)
Format: biochemical
Method: i. Supplement 99 μl assay buffer per well, then add 1 μl compound in DMSO dilution to wells of V96 MicroWell Plates and uniformly mix;
ii. Add 5 μl compound in assay buffer dilution to each well of 96-well microplate;
the final concentration of compound as below:
The inhibitory potential of test compounds on several types of phosphodiesterase (PDE) activity is determined according to the protocol of assay kit.

Amino acid sequences for entries named in this document (tags omitted). Residues count along the entry.
UniProt P27815, 1-647 isoform P27815-4: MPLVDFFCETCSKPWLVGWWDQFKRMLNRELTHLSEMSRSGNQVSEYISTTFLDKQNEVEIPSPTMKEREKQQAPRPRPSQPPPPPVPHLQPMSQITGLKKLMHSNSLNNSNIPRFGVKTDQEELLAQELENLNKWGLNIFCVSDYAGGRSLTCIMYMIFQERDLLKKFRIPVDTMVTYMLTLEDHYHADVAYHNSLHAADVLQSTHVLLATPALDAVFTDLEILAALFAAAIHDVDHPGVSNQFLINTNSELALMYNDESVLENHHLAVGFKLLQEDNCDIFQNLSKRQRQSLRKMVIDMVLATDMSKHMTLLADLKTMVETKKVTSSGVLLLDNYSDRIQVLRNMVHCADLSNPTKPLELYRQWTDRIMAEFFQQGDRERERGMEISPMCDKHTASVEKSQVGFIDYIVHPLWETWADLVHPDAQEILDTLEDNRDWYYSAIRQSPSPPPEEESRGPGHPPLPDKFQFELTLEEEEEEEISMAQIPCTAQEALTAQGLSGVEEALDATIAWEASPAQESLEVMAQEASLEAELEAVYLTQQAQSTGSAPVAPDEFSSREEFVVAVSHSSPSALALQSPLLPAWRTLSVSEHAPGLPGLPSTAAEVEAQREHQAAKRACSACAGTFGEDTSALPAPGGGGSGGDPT

IC50: > 10 µM
SMILES: CN1CC(=O)N2[C@H](c3ccc4c(c3)OCO4)c3[nH]c4ccccc4c3C[C@@H]2C1=O [Cialis]

From US9920057B2, “Substituted pyrazino[1′,2′:1 ,6]pyrido[3,4-b]indoles as phosphodiesterase type 5 inhibitors” (Chongqing University of Arts and Sciences, priority 2015, dated 2018)
